Antibody variant affinities, Ab-14 heavy chain, assay B

The measurements come from Li et al. 2023 (doi:10.1038/s41467-023-39022-2) through the FLAb antibody collection.

The target is the same throughout: PDVDLGDISGINAS, from the HR2 region of SARS-CoV-2 spike.

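The starting antibody came from a phage panning campaign against this peptide. This is the validation round: designs drawn from the data on random variants, tested in the same kind of assay. Group labels follow the data file (Ctrl: baseline library sampled from a position-specific scoring matrix, with some repeated check sequences; Rand: our label for a block that the file lists under HC and that is probably the random mutants of the ten best first-round binders; GP: Gaussian process model; GPLM: also part of the Gaussian process libraries; HC: hill climbing; Gen: genetic algorithm; Gibbs: Gibbs sampling; a sequence that several methods proposed may carry one label only). Affinity was read by AlphaSeq, a pooled yeast mating assay with surface-displayed partners. Mating (16 h, 30 °C) was followed by selection of diploids and sequencing of their barcodes. Scores were corrected for input abundance and mapped to Kd with protein pairs of known affinity run in the same pool. There are six technical replicates.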

The variants keep the light chain, the linker and the frameworks of Ab-14 (scFv order VH, three GGGGS repeats, VL).
VH: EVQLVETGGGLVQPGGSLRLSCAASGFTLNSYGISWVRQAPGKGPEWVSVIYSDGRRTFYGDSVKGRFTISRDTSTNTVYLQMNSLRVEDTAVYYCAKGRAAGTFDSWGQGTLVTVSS
VL: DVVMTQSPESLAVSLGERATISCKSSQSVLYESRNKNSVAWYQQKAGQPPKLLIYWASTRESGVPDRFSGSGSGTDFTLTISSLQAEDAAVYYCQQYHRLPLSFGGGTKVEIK

Positions count from residue 1 of the parent VH; T28E puts E in place of T.
This list holds designs with at most six substitutions.
The Kd shown is the geometric mean over detected replicates; a lower Kd is a better binder.
Where no diploid with the target was found in any replicate, the entry reads "nd": below detection, most likely a poor binder, though not proof of it.

For T28E+S31E+Y60M+A101T+S107T [GP_Gibbs], the assay gave 2.1 nM (6 of 6 replicates; controls 0 of 18). For T28S+G61I [Ctrl+GPLM_Gen], the assay gave 15 nM (12 of 12 replicates; controls 1 of 36). With T28P+S31E+R100K+A101T [GP_Gen] the result was 35 pM (2 of 6 replicates; controls 0 of 18). With T28Q+G61S+A102G [GPLM_HC] the result was 3.5 µM (2 of 6 replicates; controls 0 of 18). The variant R100K+T104W+D106E [Ctrl] showed nd (0 of 6 replicates; controls 0 of 18). The variant S31E+S107N [GPLM_HC] gave 5.4 nM (6 of 6 replicates; controls 0 of 18).

The variant R56S+G61D [Ctrl] gave 38 nM (1 of 6 replicates; controls 0 of 18). With G26K+R100Q+A101T [GP_Gen] the result was 50 nM (1 of 6 replicates; controls 0 of 18). For S31E+A102G+D106R [GP_HC], the assay gave nd (0 of 6 replicates; controls 0 of 18). For T28N+G61V+S63K+A101Q [GP_Gen], the assay gave 51 nM (3 of 6 replicates; controls 1 of 18). For S31E+A101M+S107N [GP_HC], the assay gave 4.7 nM (6 of 6 replicates; controls 0 of 18). The variant F27N+T28S+G61A [Ctrl] gave 260 nM (3 of 6 replicates; controls 1 of 18).

For S31E+F59R+G103V+S107Q [Rand], the assay gave nd (0 of 6 replicates; controls 0 of 18). With F27E+R100D [Ctrl] the result was 110 nM (2 of 6 replicates; controls 1 of 18). For N30E+G61H+R100K [GP_Gen], the assay gave 5.8 nM (6 of 6 replicates; controls 0 of 18). With T28G+R56Q+T58V [Ctrl] the result was nd (0 of 6 replicates; controls 0 of 18). The variant T28D+S31E+S63D+R100E+S107K [GP_Gibbs] gave 5.5 nM (6 of 6 replicates; controls 1 of 18). For T28W+S31E+G61Q+A101Q [GP_Gibbs], the assay gave 25 nM (6 of 6 replicates; controls 2 of 18).

The variant S63Q+R100E+D106N+S107Y [Ctrl] gave 21 nM (1 of 6 replicates; controls 0 of 18). For S31E+G61K+S107L [GP_HC], the assay gave 4.2 nM (6 of 6 replicates; controls 0 of 18). The variant T28E+S31D+F59C+G61I [GP_HC] showed 19 nM (4 of 6 replicates; controls 1 of 18). The variant G26K+T28D+R56K+A101T [GP_Gen] gave 2.7 nM (6 of 6 replicates; controls 0 of 18). The variant T28D+G61I+R100Q+S107M [GP_HC] gave 7.7 nM (6 of 6 replicates; controls 1 of 18). The variant G26K+T28N+G61K+A101T [GP_Gen] gave nd (0 of 6 replicates; controls 0 of 18).

For S31A+S35Y+Y52R+G61D+R100Q+A101L [Rand], the assay gave nd (0 of 6 replicates; controls 0 of 18). The variant T28V+S31E+R56K+A101T [GP_Gibbs] gave nd (0 of 6 replicates; controls 0 of 18). The variant S31E+G61T+A101N+A102P [Ctrl] showed 15 nM (3 of 6 replicates; controls 0 of 18). The variant N30D+R56K [GP_HC] showed 5.9 nM (6 of 6 replicates; controls 0 of 18). The variant T28N+G61A+S63R+R100E [GP_Gen] gave nd (0 of 6 replicates; controls 1 of 18). The variant N30D+S31D+R100F [Ctrl] showed 410 pM (5 of 6 replicates; controls 1 of 18).

For S31E+G61T+R100H+A101T [GP_HC], the assay gave 1.4 nM (6 of 6 replicates; controls 0 of 18). With T28S+S63N+A101E [GP_Gen] the result was 1.6 nM (6 of 6 replicates; controls 1 of 18). With T28N+G61A+S63H+R100N [GP_Gen] the result was 27 nM (5 of 6 replicates; controls 0 of 18).

The first 4 variants above that were never detected:

Variant R100K+T104W+D106E [Ctrl] gave nd (0 of 6 replicates; controls 0 of 18).
Variant S31E+A102G+D106R [GP_HC] gave nd (0 of 6 replicates; controls 0 of 18).
Variant S31E+F59R+G103V+S107Q [Rand] gave nd (0 of 6 replicates; controls 0 of 18).
Variant T28G+R56Q+T58V [Ctrl] gave nd (0 of 6 replicates; controls 0 of 18).

Where one sequence has several entries in the source, the replicates are pooled.
The range of this assay differs from that of the first round, and the authors advise against merging the two.
Nonspecific signal, from three strains lacking the peptide, appeared in 1% of pairings of all heavy chain designs, centred on 120 nM (5% of these signals below 7.0 nM); values are not corrected for it. For each scFv, signals with the empty controls are counted beside the result.
The authors averaged sequences with at least three values out of six and counted those with two or fewer as poor binders.